One assay deals with integrin α4β1 (Homo sapiens, UniProt P05556+P13612). The assay can be described thus: Assessment of VCAM-1/α4β1 binding antagonist activity (Jurkat cells binding to VCAM-1). As to conditions: read-out: integrin VCAM/α4 binding antagonistic activity (IC50) α4β1; Jurkat human T cells binding to recombinant human VCAM-1.
The target of another assay is integrin α4β7 (Homo sapiens, UniProt P13612+P26010). Briefly: Assessment of VCAM-1/α4β7 binding antagonistic activity (RPMI-8866 cells binding to VCAM-1). As to conditions: read-out: integrin VCAM/α4 binding antagonistic activity (IC50) α4β7; RPMI-8866 human B lymphoma cells binding to recombinant human VCAM-1, binding buffer with 4 mM MnCl2.

Chains of the proteins cited; added tags and fusions are not shown. Residues count along the entry.
UniProt P05556, 21-798 limits assumed: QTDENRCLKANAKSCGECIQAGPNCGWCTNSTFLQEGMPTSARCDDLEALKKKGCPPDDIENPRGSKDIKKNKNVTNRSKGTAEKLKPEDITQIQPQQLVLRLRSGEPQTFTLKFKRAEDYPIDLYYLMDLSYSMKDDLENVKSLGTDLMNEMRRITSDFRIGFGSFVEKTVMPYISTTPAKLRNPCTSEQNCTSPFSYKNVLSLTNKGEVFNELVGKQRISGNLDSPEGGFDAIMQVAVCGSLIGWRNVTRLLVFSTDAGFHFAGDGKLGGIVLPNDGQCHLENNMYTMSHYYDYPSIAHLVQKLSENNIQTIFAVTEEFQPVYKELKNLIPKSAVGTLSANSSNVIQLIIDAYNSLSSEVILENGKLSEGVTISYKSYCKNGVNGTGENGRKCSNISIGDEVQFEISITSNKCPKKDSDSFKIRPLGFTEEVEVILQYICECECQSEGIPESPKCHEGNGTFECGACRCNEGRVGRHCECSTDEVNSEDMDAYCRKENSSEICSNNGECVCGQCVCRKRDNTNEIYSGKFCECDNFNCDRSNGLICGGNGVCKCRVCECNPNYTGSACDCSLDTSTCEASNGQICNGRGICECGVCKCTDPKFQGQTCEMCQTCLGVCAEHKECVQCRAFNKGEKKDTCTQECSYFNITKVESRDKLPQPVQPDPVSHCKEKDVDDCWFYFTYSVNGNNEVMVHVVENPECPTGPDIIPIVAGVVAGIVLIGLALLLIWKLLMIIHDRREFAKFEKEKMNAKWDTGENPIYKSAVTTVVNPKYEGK
UniProt P13612, 34-1032 limits assumed: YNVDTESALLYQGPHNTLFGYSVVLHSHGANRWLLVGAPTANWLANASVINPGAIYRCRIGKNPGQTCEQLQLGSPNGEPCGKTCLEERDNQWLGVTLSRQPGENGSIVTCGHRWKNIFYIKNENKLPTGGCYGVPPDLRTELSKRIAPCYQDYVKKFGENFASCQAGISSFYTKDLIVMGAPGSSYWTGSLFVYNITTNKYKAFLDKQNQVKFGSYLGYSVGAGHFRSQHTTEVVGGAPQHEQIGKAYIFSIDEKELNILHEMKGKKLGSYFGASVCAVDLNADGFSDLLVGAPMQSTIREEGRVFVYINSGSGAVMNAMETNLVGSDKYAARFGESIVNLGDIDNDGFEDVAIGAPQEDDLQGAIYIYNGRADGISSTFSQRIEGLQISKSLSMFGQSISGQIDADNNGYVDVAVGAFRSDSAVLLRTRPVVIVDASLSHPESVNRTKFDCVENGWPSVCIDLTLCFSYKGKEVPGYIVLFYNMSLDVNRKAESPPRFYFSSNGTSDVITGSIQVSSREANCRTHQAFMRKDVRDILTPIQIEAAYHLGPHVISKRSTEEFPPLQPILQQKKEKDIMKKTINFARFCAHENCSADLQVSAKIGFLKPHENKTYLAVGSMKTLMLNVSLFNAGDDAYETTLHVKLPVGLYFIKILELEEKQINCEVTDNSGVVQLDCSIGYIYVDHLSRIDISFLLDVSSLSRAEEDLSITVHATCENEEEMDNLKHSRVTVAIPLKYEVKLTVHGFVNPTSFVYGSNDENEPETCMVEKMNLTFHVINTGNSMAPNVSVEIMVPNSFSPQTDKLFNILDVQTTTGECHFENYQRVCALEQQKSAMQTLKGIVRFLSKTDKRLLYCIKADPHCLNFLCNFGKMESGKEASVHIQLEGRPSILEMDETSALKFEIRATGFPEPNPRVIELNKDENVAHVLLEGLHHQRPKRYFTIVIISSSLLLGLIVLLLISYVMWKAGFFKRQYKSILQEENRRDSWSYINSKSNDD
UniProt P26010, 20-798 limits assumed: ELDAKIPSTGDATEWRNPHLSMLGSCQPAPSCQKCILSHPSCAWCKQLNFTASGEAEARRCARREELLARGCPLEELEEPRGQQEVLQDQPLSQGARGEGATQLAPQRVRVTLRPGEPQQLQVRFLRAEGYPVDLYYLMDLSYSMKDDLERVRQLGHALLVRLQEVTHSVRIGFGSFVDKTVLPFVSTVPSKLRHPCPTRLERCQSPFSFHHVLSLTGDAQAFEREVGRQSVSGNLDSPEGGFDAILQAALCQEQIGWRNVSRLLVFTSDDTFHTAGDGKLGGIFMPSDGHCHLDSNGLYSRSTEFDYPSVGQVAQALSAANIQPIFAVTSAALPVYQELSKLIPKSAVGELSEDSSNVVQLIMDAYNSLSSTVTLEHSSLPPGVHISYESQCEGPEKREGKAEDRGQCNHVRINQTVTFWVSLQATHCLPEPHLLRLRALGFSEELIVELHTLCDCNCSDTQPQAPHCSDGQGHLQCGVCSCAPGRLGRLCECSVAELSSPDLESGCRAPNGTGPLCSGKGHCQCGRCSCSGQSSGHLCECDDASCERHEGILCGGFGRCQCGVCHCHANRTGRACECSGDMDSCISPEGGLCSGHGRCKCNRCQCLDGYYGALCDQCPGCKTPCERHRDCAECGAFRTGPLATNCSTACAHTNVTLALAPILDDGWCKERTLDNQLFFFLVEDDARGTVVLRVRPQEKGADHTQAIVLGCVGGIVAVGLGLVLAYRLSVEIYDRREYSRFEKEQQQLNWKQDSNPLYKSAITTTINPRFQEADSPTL

As for `O=C(N[C@@H](Cc1ccc(-n2c(=O)c3ccccc3n(CCc3ccccc3)c2=O)cc1)C(=O)O)c1c(Cl)cccc1Cl`, the values for the IC50 at integrin α4β1 and at integrin α4β7 were 180 nM and 12 nM, respectively.
Take `O=C(N[C@@H](Cc1ccc(-n2c(=O)c3ccccc3n(-c3ccccc3)c2=O)cc1)C(=O)O)c1c(Cl)cccc1Cl`: the IC50 at integrin α4β1 stood at 840 nM; on integrin α4β7, 20 nM.
Taken in the same sequence, the figures for `Cn1c(=O)n(-c2ccc(C[C@H](NC(=O)c3c(Cl)cccc3Cl)C(=O)O)cc2)c(=O)c2cc(Br)ccc21` were 27 nM and 1.6 nM.
`CN1c2ccc([N+](=O)[O-])cc2C(=O)N(c2ccc(C[C@H](NC(=O)c3c(Cl)cccc3Cl)C(=O)O)cc2)[S+]1[O-]` (stereo partly shown): the results for the IC50 on integrin α4β1 and on integrin α4β7 were 183 nM and 24 nM, respectively.
On to `CCOc1nc2ccc(OC)cc2c(=O)n1-c1ccc(C[C@H](NC(=O)c2c(Cl)cccc2Cl)C(=O)O)cc1`, for which the IC50 at integrin α4β1 worked out at 1200 nM; on integrin α4β7, 1.6 nM.

The record behind these values is patent US7605165B2, “Phenylalanine derivatives” (Ajinomoto Co., Inc., priority 2002, dated 2009).
